# AlphaSeq binding of Ab-14 light chain variants to a spike HR2 peptide

The target is the same throughout: PDVDLGDISGINAS, from the HR2 region of SARS-CoV-2 spike.

Parent scFv Ab-14: VH joined to VL by a 15-residue (Gly4Ser)3 linker. Changes lie in the light chain CDRs alone.
VH: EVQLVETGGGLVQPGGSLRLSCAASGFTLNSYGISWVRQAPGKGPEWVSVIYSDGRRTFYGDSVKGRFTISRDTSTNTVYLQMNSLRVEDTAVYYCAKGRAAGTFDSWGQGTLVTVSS
VL: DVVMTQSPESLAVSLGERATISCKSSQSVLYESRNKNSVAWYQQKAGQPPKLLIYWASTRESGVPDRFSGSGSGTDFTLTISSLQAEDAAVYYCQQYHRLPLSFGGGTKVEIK

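The starting antibody came from a phage panning campaign against this peptide. This is the validation round: designs drawn from the data on random variants, tested in the same kind of assay. Group labels follow the data file (Ctrl: baseline library sampled from a position-specific scoring matrix, with some repeated check sequences; En: ensemble of fine-tuned language models; GP: Gaussian process model; HC: hill climbing; Gen: genetic algorithm; Gibbs: Gibbs sampling; a sequence that several methods proposed may carry one label only). AlphaSeq pools MATa yeast showing the antibodies with MATalpha yeast showing the peptide. Pairs that bind mate more often; barcode pairs of the diploids are counted by sequencing. Scores were corrected for input abundance and mapped to Kd with protein pairs of known affinity run in the same pool. Each pool was mated in six replicate cultures.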

The parent's light chain CDRs are KSSQSVLYESRNKNSVA, WASTRES, QQYHRLPLS; each variant's own CDRs replace them letter for letter.
Scale: log10 of Kd in nM, estimated from mating counts; low values are strong binders.
Averages over replicates are reported, and they cover detected replicates only.
"nd" marks a missing value. The strain was present, yet no cells mated with the target were sequenced in that replicate, which points to weak or no binding.
The range of this assay differs from that of the first round, and the authors advise against merging the two.

{"CDR-L1": "KLSQSMLYESRNKNSVA", "CDR-L2": "HASQRLS", "CDR-L3": "QQYHRLPLS", "group": "GP_Gen", "log10 Kd, replicates": "-0.02 / 0.17 / -0.19 / -0.15 / 0.15 / 0.25", "mean, log10 nM": "0.04"}
{"CDR-L1": "KSHQSVYYESRNKNSVA", "CDR-L2": "WASTRES", "CDR-L3": "QQYHVLPLS", "group": "Ctrl", "log10 Kd, replicates": "2.30 / 2.59 / nd / 2.04 / 2.36 / nd", "mean, log10 nM": "2.32"}
{"CDR-L1": "KSSQSVLDEDRNKNSVA", "CDR-L2": "WASTRES", "CDR-L3": "QQYHVLPLS", "group": "Ctrl", "log10 Kd, replicates": "nd / nd / nd / nd / nd / nd", "mean, log10 nM": "nd"}
{"CDR-L1": "KSSQSVLYESYNSNSVA", "CDR-L2": "WASTRES", "CDR-L3": "QQDHRLPLS", "group": "Ctrl", "log10 Kd, replicates": "nd / nd / 1.44 / nd / nd / nd", "mean, log10 nM": "1.44"}
{"CDR-L1": "ESSQSVLYESFNKNSVA", "CDR-L2": "WASTRES", "CDR-L3": "QQYHRLPLC", "group": "Ctrl", "log10 Kd, replicates": "nd / nd / nd / nd / nd / nd", "mean, log10 nM": "nd"}
{"CDR-L1": "KQSQSVPYESRNKNSVA", "CDR-L2": "GASTREQ", "CDR-L3": "QQYHRLPLS", "group": "Ctrl", "log10 Kd, replicates": "0.24 / 0.17 / 0.25 / 0.06 / 0.18 / 0.36", "mean, log10 nM": "0.21"}
{"CDR-L1": "KSSISVLYESRNKNSVA", "CDR-L2": "DASTRED", "CDR-L3": "QQYHRLPLS", "group": "Ctrl", "log10 Kd, replicates": "1.10 / 0.46 / 1.19 / 0.98 / 1.25 / 0.79", "mean, log10 nM": "0.96"}
{"CDR-L1": "SLYEAMQTGGLRTSNIA", "CDR-L2": "DVNQQMR", "CDR-L3": "QHYMRLPLA", "group": "En_Gibbs", "log10 Kd, replicates": "0.91 / 0.89 / 0.67 / 0.62 / 1.02 / 0.64", "mean, log10 nM": "0.79"}
{"CDR-L1": "KSSQSVQYESRNKNSVA", "CDR-L2": "DASTRFS", "CDR-L3": "QQYHRLPLS", "group": "Ctrl", "log10 Kd, replicates": "0.44 / 0.48 / 0.07 / 0.56 / 0.27 / 0.74", "mean, log10 nM": "0.43"}
{"CDR-L1": "KLSLSVLYESRNKNSVA", "CDR-L2": "EASTRES", "CDR-L3": "QQYHRLPLS", "group": "GP_Gen", "log10 Kd, replicates": "-0.10 / -0.07 / -0.26 / -0.21 / -0.08 / 0.09", "mean, log10 nM": "-0.11"}
{"CDR-L1": "KLSQSVLEESRNKNSVA", "CDR-L2": "WASTRES", "CDR-L3": "QQYHRLPLS", "group": "Ctrl", "log10 Kd, replicates": "0.67 / 0.34 / 0.06 / 0.13 / 0.56 / 0.68", "mean, log10 nM": "0.41"}
{"CDR-L1": "KISQMVNYESTHVNAVA", "CDR-L2": "QMSTREE", "CDR-L3": "QQYHRLPLS", "group": "En_HC", "log10 Kd, replicates": "-0.29 / -0.43 / -0.18 / -0.31 / -0.48 / -0.15", "mean, log10 nM": "-0.31"}
{"CDR-L1": "KSSQSFLYESRNVNSVA", "CDR-L2": "NASTRES", "CDR-L3": "QQYHRLPLS", "group": "GP_HC", "log10 Kd, replicates": "0.09 / -0.21 / -0.34 / -0.44 / -0.33 / -0.06", "mean, log10 nM": "-0.22"}
{"CDR-L1": "KSSQGVLYESKNKNSVA", "CDR-L2": "WASTRIS", "CDR-L3": "QQYHRLPLS", "group": "Ctrl", "log10 Kd, replicates": "2.48 / 1.92 / 1.71 / 2.35 / 2.77 / 1.74", "mean, log10 nM": "2.16"}
{"CDR-L1": "KLSMVTGHQLMHKDNVA", "CDR-L2": "EMVTREN", "CDR-L3": "QQYNRLPLS", "group": "En_Gen", "log10 Kd, replicates": "0.13 / 0.47 / 0.18 / -0.18 / 0.35 / 0.25", "mean, log10 nM": "0.20"}
{"CDR-L1": "KVSQSVMGGSRNKCSVA", "CDR-L2": "NASQREQ", "CDR-L3": "QQYHRLPLS", "group": "GP_Gibbs", "log10 Kd, replicates": "0.36 / 0.39 / 0.45 / 0.41 / 0.29 / 0.64", "mean, log10 nM": "0.42"}
{"CDR-L1": "IISQVDGYLSRNTNSIA", "CDR-L2": "DQSTRGS", "CDR-L3": "QQYDRLPLS", "group": "En_HC", "log10 Kd, replicates": "0.25 / 0.16 / 0.06 / 0.06 / 0.00 / 0.36", "mean, log10 nM": "0.15"}
{"CDR-L1": "TISQVMNTLTRNTNNVA", "CDR-L2": "DLTNRED", "CDR-L3": "QQYFRLPLS", "group": "En_Gen", "log10 Kd, replicates": "0.14 / -0.07 / -0.18 / 0.06 / -0.01 / 0.05", "mean, log10 nM": "0.00"}
{"CDR-L1": "MISQLYNMGQFAINSVA", "CDR-L2": "QGQTRNE", "CDR-L3": "QQYDRLPLM", "group": "En_Gen", "log10 Kd, replicates": "2.03 / 1.37 / 0.87 / 1.40 / 0.74 / 1.31", "mean, log10 nM": "1.29"}
{"CDR-L1": "TLMFAGEQEDSENKAIA", "CDR-L2": "DAIIKGV", "CDR-L3": "QQYNRLPLT", "group": "En_Gibbs", "log10 Kd, replicates": "0.23 / 0.60 / 0.13 / 0.93 / 0.94 / 1.25", "mean, log10 nM": "0.68"}
{"CDR-L1": "KLSDPTREWIANQSAVA", "CDR-L2": "ETADTVH", "CDR-L3": "QQYARLPLT", "group": "En_Gibbs", "log10 Kd, replicates": "1.27 / 1.28 / 1.00 / 1.05 / 1.56 / 1.01", "mean, log10 nM": "1.19"}
{"CDR-L1": "KLPQSNLYESRNKNSVA", "CDR-L2": "NASTREQ", "CDR-L3": "QQYHRLPLS", "group": "GP_Gen", "log10 Kd, replicates": "0.02 / -0.33 / -0.23 / -0.31 / -0.31 / -0.18", "mean, log10 nM": "-0.22"}
{"CDR-L1": "NLSIQNQPQNMFANNVA", "CDR-L2": "QTESRCE", "CDR-L3": "QQYFMLPLA", "group": "En_Gibbs", "log10 Kd, replicates": "0.39 / 0.21 / 0.26 / -0.08 / 0.22 / 0.41", "mean, log10 nM": "0.24"}
{"CDR-L1": "MISQLYNMGQFAINSVA", "CDR-L2": "QASVRNE", "CDR-L3": "QQYDRLPLM", "group": "En_Gen", "log10 Kd, replicates": "nd / 1.10 / 1.50 / 1.43 / 2.49 / 1.19", "mean, log10 nM": "1.54"}

In the paper, a design with two or fewer of six values counts as a poor binder.
As a blank, each scFv also met three strains without target: over all light chain designs, 4% of these pairings were detected, typically at 2.64 and seldom below 1.59.
Of ten entries with the parent sequence, four were seen in most replicates (averages 0.34 to 2.37), three in one and three in none, so single entries are noisy.

Source: Li et al. 2023 (doi:10.1038/s41467-023-39022-2), MIT Lincoln Laboratory and A-Alpha Bio; data file from the FLAb repository.